Data from ChEMBL document CHEMBL1909511, “Inhalation by design: novel tertiary amine muscarinic M₃ receptor antagonists with slow off-rate binding kinetics for inhaled once-daily treatment of chronic obstructive pulmonary disease” (J Med Chem, 2011).

By UniProt entry, the sequences of proteins in these tests, tags left out. Where a name states a change or a piece, a line headed by the entry shows the natural chain unless it says otherwise.
UniProt P20309, whole entry: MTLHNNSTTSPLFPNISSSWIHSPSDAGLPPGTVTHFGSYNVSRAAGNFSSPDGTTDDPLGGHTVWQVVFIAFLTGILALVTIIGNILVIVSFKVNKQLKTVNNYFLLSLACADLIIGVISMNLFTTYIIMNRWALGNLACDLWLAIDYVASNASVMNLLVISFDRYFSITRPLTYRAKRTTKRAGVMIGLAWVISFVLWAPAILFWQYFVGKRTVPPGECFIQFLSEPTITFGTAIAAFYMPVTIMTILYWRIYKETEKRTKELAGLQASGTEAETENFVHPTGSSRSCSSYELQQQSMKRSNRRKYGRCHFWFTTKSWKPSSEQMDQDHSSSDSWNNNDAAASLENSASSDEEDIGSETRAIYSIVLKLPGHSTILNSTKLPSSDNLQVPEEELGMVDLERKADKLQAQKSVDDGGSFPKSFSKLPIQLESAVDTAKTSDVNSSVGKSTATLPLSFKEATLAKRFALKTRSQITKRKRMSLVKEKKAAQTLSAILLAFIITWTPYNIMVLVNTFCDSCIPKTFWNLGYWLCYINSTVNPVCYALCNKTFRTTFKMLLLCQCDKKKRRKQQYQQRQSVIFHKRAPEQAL
UniProt P08172, whole entry: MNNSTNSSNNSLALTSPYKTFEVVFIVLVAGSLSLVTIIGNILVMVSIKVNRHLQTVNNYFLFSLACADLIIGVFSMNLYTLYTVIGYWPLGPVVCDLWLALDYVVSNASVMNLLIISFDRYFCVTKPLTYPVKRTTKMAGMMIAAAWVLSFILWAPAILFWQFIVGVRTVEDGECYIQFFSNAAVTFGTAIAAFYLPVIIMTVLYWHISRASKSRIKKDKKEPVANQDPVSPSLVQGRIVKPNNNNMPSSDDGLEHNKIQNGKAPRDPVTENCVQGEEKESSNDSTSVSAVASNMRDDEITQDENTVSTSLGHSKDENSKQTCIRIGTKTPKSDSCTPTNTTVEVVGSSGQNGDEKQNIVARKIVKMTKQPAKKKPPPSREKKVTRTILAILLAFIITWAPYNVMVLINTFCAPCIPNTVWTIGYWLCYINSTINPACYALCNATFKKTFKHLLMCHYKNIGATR
UniProt P11229: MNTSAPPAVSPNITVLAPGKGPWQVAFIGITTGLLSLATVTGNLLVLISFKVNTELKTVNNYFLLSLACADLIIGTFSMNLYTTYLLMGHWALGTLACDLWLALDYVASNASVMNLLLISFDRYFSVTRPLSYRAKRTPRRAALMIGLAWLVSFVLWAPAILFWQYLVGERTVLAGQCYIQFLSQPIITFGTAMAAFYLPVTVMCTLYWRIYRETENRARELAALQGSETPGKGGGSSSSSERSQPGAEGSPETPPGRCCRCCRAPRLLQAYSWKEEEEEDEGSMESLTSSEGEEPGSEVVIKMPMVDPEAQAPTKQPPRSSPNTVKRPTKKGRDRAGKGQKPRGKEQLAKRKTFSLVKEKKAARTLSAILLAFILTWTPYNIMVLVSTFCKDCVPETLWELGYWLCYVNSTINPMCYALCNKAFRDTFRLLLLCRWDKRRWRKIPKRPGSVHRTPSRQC

Legend:
[1] = biological target: T1, Muscarinic acetylcholine receptor M3 (Homo sapiens, UniProt P20309); assay: Antagonist activity at human recombinant M3 receptor expressed in CHO-K1 cells assessed as inhibition of carbamoyl choline-induced calcium currents after 4 hrs by fluorimetry; assay type: functional, cell-based
[2] = biological target: T1, Muscarinic acetylcholine receptor M3; assay: Displacement of [3H]-NMS from human recombinant M3 receptor expressed in CHO cells after 2 hrs by filter binding assay; assay type: cell-based
[3] = biological target: T2, Muscarinic acetylcholine receptor M2 (Homo sapiens, UniProt P08172); assay: Displacement of [3H]-NMS from human recombinant M2 receptor expressed in CHO cells after 2 hrs by filter binding assay; assay type: cell-based
[4] = biological target: T1, Muscarinic acetylcholine receptor M3; assay: Displacement of [3H]-NMS from human recombinant M3 receptor expressed in CHO cells after 24 hrs by filter binding assay; assay type: cell-based
[5] = biological target: Muscarinic acetylcholine receptor M1 (Homo sapiens, UniProt P11229); assay: Displacement of [3H]-NMS from human recombinant M1 receptor expressed in CHO cells after 24 hrs by filter binding assay; assay type: cell-based
[6] = biological target: T2, Muscarinic acetylcholine receptor M2; assay: Displacement of [3H]-NMS from human recombinant M2 receptor expressed in CHO cells after 24 hrs by filter binding assay; assay type: cell-based

## CC(C)[N+]1(C)C2CCC1CC(OC(=O)C(CO)c1ccccc1)C2.O.[Br-] (stereo unspecified)
[1]
  Ki: 0.19 nM
[2]
  Ki: 0.29 nM
[3]
  Ki: 0.48 nM
[4]
  Ki: 0.213 nM
[5]
  Ki: 0.433 nM
[6]
  Ki: 0.413 nM
